Results on three molecules are retold here after article PMC6222496 (Molecules : A Journal of Synthetic Chemistry and Natural …, 2018).

Protein sequences, listed by entry. Tags and fused reporters are not part of them. Lines headed by an entry give the natural chain unless they say otherwise; changes in a name come on top.
UniProt P41145: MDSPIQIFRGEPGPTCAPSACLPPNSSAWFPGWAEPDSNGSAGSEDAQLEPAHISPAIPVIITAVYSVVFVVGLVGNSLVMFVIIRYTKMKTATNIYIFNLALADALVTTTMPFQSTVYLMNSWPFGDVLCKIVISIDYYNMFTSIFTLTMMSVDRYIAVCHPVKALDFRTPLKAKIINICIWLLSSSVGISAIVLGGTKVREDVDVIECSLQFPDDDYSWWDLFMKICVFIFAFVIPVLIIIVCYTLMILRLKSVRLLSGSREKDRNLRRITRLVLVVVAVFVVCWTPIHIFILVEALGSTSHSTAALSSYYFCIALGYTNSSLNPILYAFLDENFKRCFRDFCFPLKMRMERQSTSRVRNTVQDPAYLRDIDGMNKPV

Data set [1] relates to rats. The conditions noted are these: rats, 5, 10 mg/kg; cited from earlier work.
The subject of a further data set is rhesus monkeys. The conditions noted are these: intravenous infusion: bremazocine 0.0032, enadoline 0.001, 0.0032, ethylketazocine 0.01, 0.0032, U50488 0.1 mg/kg/h; cited from earlier work.
A further data set concerns the target hKOR (Homo sapiens, UniProt P41145). Kind of data set: β-arrestin2 recruitment (PathHunter). Format: cell-based. The conditions noted are these: normalized to vehicle and U50488 maximum response. (Activated receptors often draw arrestin, which recruitment assays turn into a signal.)
A further data set has as its system B6.SJL mice. Kind of data set: Warm-water (50 °C) tail withdrawal. The conditions noted are these: cumulative dose-response, s.c. Format: in vivo, mouse.
The subject of data set [2] is Sprague-Dawley rats. The conditions noted are these: cited from earlier work.
For data set [3], the system named is Sprague-Dawley rats. As to conditions: cited from earlier work. The source holds these as a separate data set.
The next data set concerns Sprague Dawley rats. The conditions noted are these: cited from earlier work.
Data set [4] has as its system mice. The conditions noted are these: cited from earlier work.
In data set [5] the test system is mice. The conditions noted are these: 0.3 and 5.0 mg/kg; cited from earlier work.
Data set [6] deals with rats. The data set can be described thus: Conditioned place aversion. As to conditions: 10 mg/kg.

Take `CN(C(=O)Cc1ccc(Cl)c(Cl)c1)C1CCC2(CCCO2)CC1N1CCCC1` (stereo not drawn): the water consumption entry in the data set with rats [1] is “suppress”.

Take `CN(C(=O)Cc1cccc2occc12)[C@H]1CC[C@@]2(CCCO2)C[C@@H]1N1CCCC1`: in the data set with rhesus monkeys, the cocaine self-administration result is “decreased” and the food reinforcements entry is recorded as “decreased”.

Turning to `CN(C(=O)Cc1ccc(Cl)c(Cl)c1)[C@@H]1CCCC[C@H]1N1CCCC1`, the “β-Arrestin Recruitment (PathHunter) Efficacy” value at hKOR came out at 102.6%. Besides, the “EC50 (antinociception, % MPE)” value in the data set with B6.SJL mice is on record as 6.7 mg/kg. In the data set on Sprague-Dawley rats [2], the cocaine-induced hyperactivity entry is given as “attenuate”. The behavioral sensitization entry in the data set on Sprague-Dawley rats [3] is given as “attenuate”. Besides, the “sucrose intake and seeking” value with Sprague Dawley rats (5 and 10 mg/kg) is listed as “reduce”. The sucrose intake entry in the data set with Sprague Dawley rats (intracerebroventricular, rats) is on record as “increased sucrose intake”. Moreover, in the data set on rhesus monkeys, the cocaine self-administration result is listed as “decreased” and the food reinforcements entry was “decreased”. Besides, the water consumption result with rats [1] is listed as “suppress”. Moreover, the “memory in the passive avoidance test” value with mice [4] is “induces memory impairment”. Also, the “novel object recognition task” value in the data set on mice [5] was “disruption”. The “aversion to the drug-paired chamber” value in the data set with rats [6] is listed as “significant aversion”.
